# Reference: patent US8314108B2, “5-(5-(2-(3-aminopropoxy)-6-methoxyphenyl)-1H-pyrazol-3-ylamino)pyrazine-2-carbonitrile, pharmaceutically acceptable salts thereof, or solvate of salts” (Eli Lilly and Company, priority 2008, dated 2012)
# Counter-ions that a name gives are not always drawn.
# Test system: HT-29 cells
# Assay: ECtfs (Two-Fold Sensitization) Assay, 3H-thymidine incorporation
# Format: cell-based
# Conditions: 3 nM alone, without gemcitabine
# Description: An inhibitor of Chk1 can potentiate the anti-proliferative activity of gemcitabine (or other cytotoxics) through abrogation of the intra-S phase checkpoint, resulting in sustained and increased DNA damage. The capacity for continued tumor cell proliferation after DNA damage can be analyzed by determining the ability of cells to replicate their DNA. […] In this assay, cells are treated with gemcitabine, and then with the compound of Example 2. Following a recovery period, cells are assayed for the ability to incorporate radioactive thymidine into DNA during S phase. The ECtfs parameter is a measure of the concentration of a Chk1 inhibitor necessary to reduce by half the GI90 concentration of gemcitabine, measured in this assay in the absence of Chk1 inhibition. HT-29 cells (obtained from ATCC), are grown in RPMI 1640 plus (Gibco™) 10% (v/v) heat inactivated FBS. These cells are plated at 1.3×10^3 per well on Corning Costar 96-well tissue culture plates. After plating the cells, the tissue culture plates are held at room temperature for 45 minutes, before returning to 37° C. Plates are incubated for 24 hours prior to gemcitabine addition. […] Plates are counted on a Topcount scintillation counter (PerkinElmer), at 1 minute per well. ^3H-thymidine counts per minute (cpm) are exported into Prism (GraphPad) for analysis and plotting. […]
smiles,measurement,value
"COc1cccc(OCCCN)c1-c1cc(Nc2cnc(C#N)cn2)n[nH]1 [Example 2, 5-(5-(2-(3-Aminopropoxy)-6-methoxyphenyl)-1H-pyrazol-3-ylamino)pyrazine-2-carbonitrile dihydrogen chloride salt]",effect on the proliferation of HT29 cells,little effect
